From patent US10093938B2, “Regulated switch for gene expression” (The Johns Hopkins University, priority 2014, dated 2018)

System: BY4741 strain
Experiment: Growth effects of camphor treatment (doubling time)
Format: cell-based, Saccharomyces cerevisiae
Conditions: none, 25 μM, 50 μM, 100 μM and 200 μM camphor
Source text: FIG. 5. Effects of camphor on the growth of BY4741 strain. Doubling time in the presence of various concentrations of camphor. The values are means and standard deviations calculated from eight experiments.
Based on this, we investigated how yeast cells were affected by camphor.
Yeast growth was monitored using an Eon Microplate Spectrophotometer with Gen5 software (BioTek, Winooski, Vt.), and 96 Well Clear Flat Bottom plates (Corning, N.Y.) were used to culture the cells. Fresh cells were suspended in the required medium, and then 200 μl of the samples were filled in each well. Typically, the initial value of A600 was 0.20 to 0.25, and the absorbance was measured at 600 nm every 10 minute. Doubling time was determined from cells that were in logarithmic phase.

D-Camphor
doubling time of BY4741, difference between conditions: no significant difference
